Values of other authors in US20250283018A1, “TOILET RIM BLOCKS WITH SCENT CHANGE” (SYMRISE AG, priority 2021, published 2025).
Where two headings read alike, the source gives them in different places.

[1] = Table 3, components of POWER PLATIN

Structure (SMILES) | logP [1] | logP (Table 1, components of MARINA) | logP (Table 2, components of PEACH)
C=CCCC(=O)C(=C)C1CCCCC1 [PHARAONE 10% DPG] | 4.56 |  | 
CC(=O)OC1CCCCC1C(C)(C)C (centres unmarked) [AGRUMEX LC] | 4.42 | 4.42 | 4.42
CCCCCC(=O)OCC [ETHYLCAPRONAT] |  |  | 2.83
